The list is not random: actives were taken first. Their share in the collection is about 2.1%.
Wnt bcat act = activators of Wnt/beta-catenin signaling | AID 743398 | hit rate 1.2% among 300,000 | Wnt/beta-catenin reporter cell assay, activator, plate reader | activation, % at 9.35 µM; in the data active means activation above about 30%, passing the limit was not always enough; inconclusive means no clear call, values can overlap the other calls;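 further: 0% = neutral control wells and 100% = positive control wells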
PGC1a acetyl inh = lowers PGC1a acetylation signal in U2OS cells | AlphaScreen anti-acetyl-lysine; with virally co-expressed GCN5 acetyltransferase | inhibition, % at 15.6 µM | hit rate 0.17% among 350,000 | AID 651687;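 active means every replicate shows inhibition of at least 40%; inconclusive means mean inhibition at least 40% but some replicate below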;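 further: 0% = neutral control wells and 100% = positive control wells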
Yeast UUG start = modulators of yeast start codon fidelity, primary screen, whole organism, S. cerevisiae, single point, plate reader | AID 602363, 2012 | S. cerevisiae UUG-firefly luciferase reporter, luminescence/redox ratio | activity score, % at 18.7 µM | hit rate 0.13% among 350,000;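 active = replicate mean at a twofold rise or more, about +100% in these data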;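 also: firefly luciferase made from a UUG start codon reports start codon fidelity; reporter light over untreated wells divided by growth signal over untreated wells; some hits fall short of that in this replicate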
MITF TRPM1 HTS = MITF TRPM1 promoter activation in melanoma cells | SK-MEL-5 TRPM1-promoter luciferase, 24 h; % of positive control, neutral wells = 0 | activation, % at 12.5 µM | hit rate 0.75% among 300,000;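 active means mean activation of at least 80% with every replicate also reaching 80%; inconclusive means mean reaches 80% but some replicate falls short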;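 further: 0% = neutral control wells and 100% = parthenolide positive control wells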
miR122 inh = inhibitors of miR-122 in Huh7 cells | Huh7 miR-122 Renilla luciferase sensor, 48 h; neutral wells = 0, positive control = 100 | activation (reporter increase), % at 12.5 µM | hit rate 0.3% among 340,000;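 active means mean replicate activation score at least 90 and every replicate individually at or above 90; inconclusive means only one of the two criteria met; inactive means neither criterion met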;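 further: higher luciferase means less miR-122 activity so hits act as miR-122 inhibitors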
TRPM1 prom inh = reduces MITF-dependent TRPM1 promoter luciferase signal. AID 488899. SK-MEL-5 TRPM1 promoter luciferase, 24 h. inhibition, % at 12.5 µM. hit rate 0.83% among 330,000;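 active means mean inhibition across replicates of 60% or more, whatever share of single replicates reaches that level; inconclusive means some that reach 60%, reason not given; inactive means mean inhibition across replicates below 60%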
Starred values were filed as active, the others as inactive; [ ] = dose if it differs, or a comment.

How did COc1ccc(S(=O)(=O)Nc2cccc3c2O[C@@H](CN(C)CC2CCCCC2)[C@@H](C)CN([C@@H](C)CO)C3=O)cc1 do in these assays?
PGC1a acetyl inh: 17.7; Yeast UUG start: -6.4; miR122 inh: 15.7[16.7 µM]

Results for CC(C)NC(=O)N(C)C[C@H]1Oc2cc(C#CCN(C)C)ccc2S(=O)(=O)N([C@@H](C)CO)C[C@H]1C ?
PGC1a acetyl inh: -1.4; Yeast UUG start: 10.0; miR122 inh: 6.7[16.7 µM]

How did CCOc1cnn(-c2cc(Oc3ccc(C)cc3)ncn2)c(=O)c1Cl do in these assays?
PGC1a acetyl inh: 4.4; Yeast UUG start: -6.8; MITF TRPM1 HTS: -1.3; miR122 inh: -4.9; TRPM1 prom inh: 5.9

What do the screens show for `Cc1ccccc1Oc1cc(-n2ncc(Cl)c(Cl)c2=O)ncn1`?
Wnt bcat act: -12.8; PGC1a acetyl inh: 69.3*; Yeast UUG start: -4.3; MITF TRPM1 HTS: -93.4; miR122 inh: -19.5; TRPM1 prom inh: 93.8*

How did COc1cccc(-c2cnc3c(c2)C(=O)N([C@H](C)CO)C[C@H](C)[C@H](CN(C)S(=O)(=O)c2cccs2)O3)c1 do in these assays?
PGC1a acetyl inh: -11.2; Yeast UUG start: -4.0; miR122 inh: -6.3[16.7 µM]

What do the screens show for `Cc1ccc(-c2cn(-c3ccccc3)c(SCC(=O)NC3CCS(=O)(=O)C3)n2)cc1C` (stereo not given)?
Wnt bcat act: -0.3; PGC1a acetyl inh: -10.0; Yeast UUG start: 5.4; MITF TRPM1 HTS: 99.4*; miR122 inh: 1.6; TRPM1 prom inh: -95.9

How did Cc1ccc(SCC(=O)NC2CCS(=O)(=O)C2)cc1C (stereo not given) do in these assays?
Wnt bcat act: 22.1; PGC1a acetyl inh: -13.9; MITF TRPM1 HTS: 4.7; TRPM1 prom inh: -3.0

Results for COC(=O)CSc1nc2cc(C)ccc2cc1C#N ?
Wnt bcat act: 79.8*; Yeast UUG start: -24.6; MITF TRPM1 HTS: 75.1; miR122 inh: -1.0; TRPM1 prom inh: -70.6

How did COCC#Cc1cnc2c(c1)C(=O)N([C@@H](C)CO)C[C@@H](C)[C@H](CN(C)S(=O)(=O)c1ccccc1)O2 do in these assays?
PGC1a acetyl inh: 3.5; Yeast UUG start: -15.0; miR122 inh: 0.9[16.7 µM]

What do the screens show for `O=C1C(C2=NC(c3ccccn3)C3C(=O)N(c4ccc(Cl)cc4Cl)C(=O)C23)=C(O)c2ccccc21` (stereo not given)?
Wnt bcat act: -4.5; PGC1a acetyl inh: 7.8; MITF TRPM1 HTS: -89.0; TRPM1 prom inh: 89.9*

What do the screens show for `O=C1C(C2=NC(C(=O)O)C3C(=O)N(c4ccc(Cl)cc4)C(=O)C23)=C(O)c2ccccc21` (stereo not given)?
PGC1a acetyl inh: -0.6; Yeast UUG start: -3.1; MITF TRPM1 HTS: 2.2; miR122 inh: -3.7; TRPM1 prom inh: -0.7

Results for CC(=O)Nc1ccc2c(c1)C(=O)c1ccccc1C2=O ?
PGC1a acetyl inh: -0.1; Yeast UUG start: -10.7; miR122 inh: 3.5; TRPM1 prom inh: -50.3

Structural class, those above with four or more nitrogen atoms (3)
Results for CC(C)NC(=O)N(C)C[C@H]1Oc2cc(C#CCN(C)C)ccc2S(=O)(=O)N([C@@H](C)CO)C[C@H]1C ?
PGC1a acetyl inh: -1.4; Yeast UUG start: 10.0; miR122 inh: 6.7[16.7 µM]

How did CCOc1cnn(-c2cc(Oc3ccc(C)cc3)ncn2)c(=O)c1Cl do in these assays?
PGC1a acetyl inh: 4.4; Yeast UUG start: -6.8; MITF TRPM1 HTS: -1.3; miR122 inh: -4.9; TRPM1 prom inh: 5.9

What do the screens show for `Cc1ccccc1Oc1cc(-n2ncc(Cl)c(Cl)c2=O)ncn1`?
Wnt bcat act: -12.8; PGC1a acetyl inh: 69.3*; Yeast UUG start: -4.3; MITF TRPM1 HTS: -93.4; miR122 inh: -19.5; TRPM1 prom inh: 93.8*

The results go on.
What do the screens show for `O=C(O)/C=C/C(=O)Nc1ccc2c(c1)C(=O)c1ccccc1C2=O`?
Wnt bcat act: 50.4*; MITF TRPM1 HTS: 18.2; TRPM1 prom inh: -15.9

How did C[C@@H]1CN([C@@H](C)CO)C(=O)c2cc(C#C[C@@H](C)O)cnc2O[C@H]1CN(C)C(=O)Nc1ccc(F)cc1 do in these assays?
PGC1a acetyl inh: -4.2; Yeast UUG start: 6.9; miR122 inh: -0.3[16.7 µM]

How did O=c1[nH]c(=O)c2[nH]c(=S)[nH]c2[nH]1 do in these assays?
Wnt bcat act: -4.5; PGC1a acetyl inh: 60.4*; MITF TRPM1 HTS: -9.1; miR122 inh: 13.5; TRPM1 prom inh: 7.9

How did CCCCCN1C=CC(=C2C(=O)c3ccccc3C2=O)C=C1 do in these assays?
Wnt bcat act: -0.2; PGC1a acetyl inh: 11.2; MITF TRPM1 HTS: -98.1; miR122 inh: 6.2; TRPM1 prom inh: 99.1*

What do the screens show for `CC1=CC(=C2C(=O)c3ccccc3C2=O)C=C(C)N1C`?
MITF TRPM1 HTS: 51.6; TRPM1 prom inh: -52.8

What do the screens show for `CCC(=O)N(C)C[C@@H]1[C@H](c2ccc(C3=CCCC3)cc2)[C@H](CO)N1C(=O)CC`?
PGC1a acetyl inh: 2.1; Yeast UUG start: 0.8; miR122 inh: -5.5[16.7 µM]

What do the screens show for `O=C(Nc1ccc(OCC(F)(F)C(F)F)c(C(F)(F)F)c1)c1ccc(Cl)cc1`?
PGC1a acetyl inh: -3.7; Yeast UUG start: -6.2; MITF TRPM1 HTS: -66.4; miR122 inh: -5.1; TRPM1 prom inh: 67.6*

How did CCCCN(C)CC(O)Cn1cc(/C=C/C(=O)c2cccs2)c2ccccc21 (stereo not given) do in these assays?
Yeast UUG start: 11.1; MITF TRPM1 HTS: -90.1; miR122 inh: -4.7; TRPM1 prom inh: 90.4*

Results for O=C(/C=C/c1cn(CC(O)CN2CCCCCC2)c2ccccc12)c1cccs1 (stereo not given) ?
Wnt bcat act: -0.7; MITF TRPM1 HTS: -10.8; TRPM1 prom inh: 7.5

What do the screens show for `Cc1noc(C)c1NC(=O)Nc1ccc2c(c1)C(=O)N([C@@H](C)CO)C[C@@H](C)[C@@H](CN(C)CC1CC1)OCCCC[C@@H](C)O2`?
PGC1a acetyl inh: -7.2; miR122 inh: 5.2[16.7 µM]

How did CCOC(=O)c1c(NC(=O)/C=C/C(=O)O)sc(C)c1-c1ccc(C(C)(C)C)cc1 do in these assays?
Wnt bcat act: -2.7; PGC1a acetyl inh: 46.9*; MITF TRPM1 HTS: -37.2; TRPM1 prom inh: 35.3

How did C[C@H](CO)N1C[C@H](C)[C@H](CN(C)Cc2ccc3c(c2)OCO3)Oc2c(NC(=O)C3CCOCC3)cccc2C1=O do in these assays?
PGC1a acetyl inh: -0.1; Yeast UUG start: -14.7; miR122 inh: 50.5[16.7 µM]

Results for O=C(CCl)N1c2ccccc2CCc2ccccc21 ?
Wnt bcat act: -1.4; PGC1a acetyl inh: -2.9; Yeast UUG start: -15.0; MITF TRPM1 HTS: -74.5; miR122 inh: -6.9; TRPM1 prom inh: 75.2*

How did Cc1ccc(-c2ccnc3c(Cl)c(C)nn23)cc1 do in these assays?
Wnt bcat act: 0.3; Yeast UUG start: -12.1; MITF TRPM1 HTS: -9.8; miR122 inh: -5.2; TRPM1 prom inh: 14.1

What do the screens show for `Cc1nc2c(-c3ccccc3)c(C)nn2c(N)c1-c1ccccc1`?
PGC1a acetyl inh: -1.4; MITF TRPM1 HTS: 86.5*; miR122 inh: 3.4; TRPM1 prom inh: -86.2

What do the screens show for `Cc1nn2c(N)c(-c3ccccc3)cnc2c1-c1ccc(Cl)cc1`?
Wnt bcat act: 16.6; PGC1a acetyl inh: -15.0; Yeast UUG start: 2.0; MITF TRPM1 HTS: 101.1*; miR122 inh: 4.9; TRPM1 prom inh: -104.5

What do the screens show for `Cc1nn2c3c(cnc2c1-c1ccccc1)C(=O)CCC3`?
Wnt bcat act: 8.1; PGC1a acetyl inh: -1.9; Yeast UUG start: -19.7; MITF TRPM1 HTS: 40.7; miR122 inh: -0.1; TRPM1 prom inh: -28.6

Results for Cc1nn2c(-c3ccccc3)ccnc2c1-c1ccccc1 ?
Wnt bcat act: 40.4*; PGC1a acetyl inh: 32.1; Yeast UUG start: -12.5; MITF TRPM1 HTS: inconclusive; miR122 inh: 1.0; TRPM1 prom inh: -88.3

Bioassay records as filed in PubChem BioAssay.
